Laboratory results: US9802941B2, “Compounds and methods for inhibiting histone demethylases” (Gilead Sciences, Inc., priority 2014, dated 2017)
Read-outs that look alike come from different tables or passages of the source.

The chains behind the UniProt entries cited, without tags or fusion partners. Residues count along the entry.
UniProt Q9UGL1, 1-809 limits assumed: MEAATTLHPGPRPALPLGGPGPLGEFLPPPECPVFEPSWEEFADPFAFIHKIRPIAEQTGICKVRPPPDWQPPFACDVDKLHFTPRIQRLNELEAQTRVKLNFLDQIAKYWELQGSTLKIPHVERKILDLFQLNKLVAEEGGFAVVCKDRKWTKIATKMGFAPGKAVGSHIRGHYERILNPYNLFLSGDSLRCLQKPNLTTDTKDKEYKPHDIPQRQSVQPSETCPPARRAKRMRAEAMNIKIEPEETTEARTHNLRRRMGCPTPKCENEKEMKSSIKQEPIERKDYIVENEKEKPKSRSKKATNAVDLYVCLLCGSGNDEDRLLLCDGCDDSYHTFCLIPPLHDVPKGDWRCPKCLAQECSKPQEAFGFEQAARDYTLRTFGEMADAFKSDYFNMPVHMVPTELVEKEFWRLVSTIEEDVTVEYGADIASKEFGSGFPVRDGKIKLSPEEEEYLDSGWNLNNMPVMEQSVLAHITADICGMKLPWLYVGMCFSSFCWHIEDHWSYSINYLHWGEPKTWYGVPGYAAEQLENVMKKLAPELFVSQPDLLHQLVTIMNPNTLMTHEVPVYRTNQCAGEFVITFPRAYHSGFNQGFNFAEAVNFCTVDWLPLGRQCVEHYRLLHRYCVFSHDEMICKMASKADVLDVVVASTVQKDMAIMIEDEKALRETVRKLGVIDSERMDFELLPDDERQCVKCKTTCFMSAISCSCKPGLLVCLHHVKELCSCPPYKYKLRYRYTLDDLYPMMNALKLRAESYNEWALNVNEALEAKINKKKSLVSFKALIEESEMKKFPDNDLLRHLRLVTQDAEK
UniProt Q8NHM5, 1-650 limits assumed: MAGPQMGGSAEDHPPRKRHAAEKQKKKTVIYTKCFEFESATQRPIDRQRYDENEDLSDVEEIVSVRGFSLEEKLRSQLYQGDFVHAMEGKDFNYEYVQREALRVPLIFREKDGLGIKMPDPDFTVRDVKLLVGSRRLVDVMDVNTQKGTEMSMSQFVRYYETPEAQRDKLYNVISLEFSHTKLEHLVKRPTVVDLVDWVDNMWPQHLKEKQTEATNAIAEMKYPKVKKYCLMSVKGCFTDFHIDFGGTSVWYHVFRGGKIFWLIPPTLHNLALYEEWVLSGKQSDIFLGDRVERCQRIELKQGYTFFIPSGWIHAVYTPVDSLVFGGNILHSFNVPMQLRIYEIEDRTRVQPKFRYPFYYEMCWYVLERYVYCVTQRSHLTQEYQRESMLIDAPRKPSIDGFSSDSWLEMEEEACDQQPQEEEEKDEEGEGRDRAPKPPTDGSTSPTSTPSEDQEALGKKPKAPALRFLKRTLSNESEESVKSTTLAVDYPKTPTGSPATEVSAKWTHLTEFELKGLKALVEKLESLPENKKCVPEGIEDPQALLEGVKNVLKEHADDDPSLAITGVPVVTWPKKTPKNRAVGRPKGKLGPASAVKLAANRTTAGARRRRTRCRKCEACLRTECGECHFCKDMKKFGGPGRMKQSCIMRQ

Columns and labels:
KDM5B (PLU-1) = KDM5B (PLU-1) (Homo sapiens, UniProt Q9UGL1); assay: Histone lysine demethylase AlphaLISA assay, KDM5B
KDM2B (FBXL10) = KDM2B (FBXL10) (Homo sapiens, UniProt Q8NHM5); assay: Histone lysine demethylase AlphaLISA assay, KDM2B

In the case of `COc1ccc(OCc2ccccc2)c(CCNCc2cc(C(=O)O)cc(CO)n2)n1`, the IC50 (KDM5B (PLU-1); read-out: HDME Inhibition KDM5B (IC50), AlphaLISA assay) is reported as greater than 10000 nM, the IC50 (KDM5B (PLU-1); read-out: HDME Inhibition KDM5B, AlphaLISA, in vitro) is reported as greater than 10000 nM and the IC50 (KDM2B (FBXL10); read-out: HDME Inhibition KDM2B (IC50), AlphaLISA assay) is reported as 242 nM. The IC50 (KDM2B (FBXL10); read-out: HDME Inhibition KDM2B, AlphaLISA, in vitro) was 242 nM.
